Results reported in BindingDB's records for doi:10.1021/jm048987t (Chemical Diversity Research Institute, 2005).

Molecular target: T1, Caspase-3 (Homo sapiens, UniProt P42574)
T1 sequence (P42574 whole entry): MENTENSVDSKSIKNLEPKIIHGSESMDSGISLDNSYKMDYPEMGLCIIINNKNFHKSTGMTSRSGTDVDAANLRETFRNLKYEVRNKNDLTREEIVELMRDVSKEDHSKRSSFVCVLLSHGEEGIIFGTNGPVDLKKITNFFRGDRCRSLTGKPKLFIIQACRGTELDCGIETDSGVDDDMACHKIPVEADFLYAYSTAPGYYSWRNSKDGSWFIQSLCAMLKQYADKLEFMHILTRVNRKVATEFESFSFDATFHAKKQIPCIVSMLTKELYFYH
Assay: Caspase Inhibition Assay
Settings: pH 7.5; 22 °C
Description: The substrate peptides terminating in AMC are processed by caspases with or without inhibitors.

## CC(=O)N[C@@H](CC(=O)O)C(=O)N[C@@H](CCC(=O)O)C(=O)N[C@H](C(=O)N[C@H](C=O)CC(=O)O)C(C)C [(4S)-4-{[(1S)-1-{[(2S)-1-carboxy-3-oxopropan-2-yl]carbamoyl}-2-methylpropyl]carbamoyl}-4-[(3S)-3-acetamido-3-formamidopropanoic acid]butanoic acid]
  pIC50: 8.51

pIC50: −log10 of the molar value.
